Results on 60 molecules are retold here after PubChem BioAssay AID602248 (The Scripps Research Institute Molecular Screening Center, 2012).

Structures are written as SMILES. The list shows a part of the results, in another mix than the full data. Active and inactive are the calls of the source. Rule as the data show it: active = activation above about 15%; inactive = the rest.

A short description of the assay: counter-screen for M1 agonists: effect in parental CHO-K1 cells (AID 602248).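 Also: untransfected CHO-K1 host cells lacking M1 receptor as counterscreen.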 As to conditions: Fluo-8 calcium fluorescence, at 3 µM, active compounds read high, scaled to maximal ATP response, vehicle zero. Background: The purpose of a counterscreen is to sort out artefacts and off-target activity.
`O=C(NCC1(N2CCOCC2)CCCCC1)c1cc(=O)[nH]c2ccccc12`: the activation was inactive: 0.33%. With `COc1cc(C(=O)NCC2(N3CCCCC3)CCCCC2)ccc1OC(F)F` the figure was inactive: -0.69%.

Regarding `CCCCn1nnnc1C(c1cccc2ccccc12)N1CCC(n2c(=O)[nH]c3ccccc32)CC1` (stereo not given), the activation is inactive: 2.63%. With `CC(C)c1ccc(C(=O)NCC2(N3CCOCC3)CCCCC2)cc1` the figure was inactive: -0.04%; with `COc1ccc(NC2CCN(C(=O)OC(C)(C)C)CC2)cc1`, inactive: 1.75%; with `CN1CCN(CCOC(=O)C(O)(c2ccccc2)c2ccccc2)CC1`, inactive: 0.82%. With `O=C(NCC1(N2CCCCC2)CCCCC1)c1cccc(C(F)(F)F)c1` the figure was inactive: 3.65%; with `CCN1CCC(Nc2ccc(Cl)cc2)CC1`, inactive: 0.76%; with `N#CC1(Nc2ccccc2)CCN(CCc2ccccc2)CC1`, inactive: 0.56%. On to `O=c1[nH]c2ccccc2n1C1CCN(C(c2ccccc2OC(F)(F)F)c2nnnn2C2CCCC2)CC1` (stereo not given), for which the activation was inactive: -0.24%.

For `CSc1ccc(C(=O)NCC2(N3CCOCC3)CCCCC2)cc1`, the activation is inactive: 0.1%. Take `O=C(NCC1(N2CCCCC2)CCCCC1)c1cccc([N+](=O)[O-])c1`: the activation was inactive: 0.45%. With `CC(C)(C)n1nnnc1C(c1ccccc1OC(F)(F)F)N1CCC(n2c(=O)[nH]c3ccccc32)CC1` (stereo not given) the figure was inactive: 1.47%.

As for `O=C(NCC1(N2CCCCC2)CCCCC1)c1ccc(OC(F)F)cc1`, the activation is inactive: 2.41%. Consider `COc1ccc(C(c2nnnn2C2CCCC2)N2CCC(n3c(=O)[nH]c4ccccc43)CC2)cc1` (stereo not given), for which the activation was inactive: 1.55%.

Consider `Cc1ccc(C(=O)NCC2(N(C)C)CCCCC2)o1`, for which the activation is inactive: -0.2%. `CCCOc1ccc(C(=O)NCC2(N(C)C)CCCCC2)cc1OC`: the activation is inactive: 0.84%. `O=C(NCC1(N2CCCCC2)CCCCC1)c1cncc(Br)c1`: the activation was inactive: 0.06%. With `CN1CCC(Nc2cccc(F)c2)CC1` the figure was inactive: -0.08%; with `COc1cc(OC)c(C(=O)NCC2(N(C)C)CCCCC2)cc1OC`, inactive: 0.3%. Take `O=C(NCC1(N2CCOCC2)CCCCC1)c1cc(F)c(F)cc1Cl`: the activation is inactive: -0.04%. With `CCC(c1nnnn1C(C)(C)C)N1CCC(n2c(=O)[nH]c3ccccc32)CC1` (stereo not given) the figure was inactive: 3.62%; with `CCCCn1nnnc1C(c1ccnc2ccccc12)N1CCC(n2c(=O)[nH]c3ccccc32)CC1` (stereo not given), inactive: 4.8%; with `CC(C)c1ccc(NC2CCN(C(=O)OC(C)(C)C)CC2)cc1`, inactive: 1.98%. Take `CCCCn1nnnc1C(c1ccccc1OC(F)(F)F)N1CCC(n2c(=O)[nH]c3ccccc32)CC1` (stereo not given): the activation was inactive: 0.92%. Then `COc1ccc(CN(CCCl)CCCl)cc1Cl`, with inactive: 4.56%; and `CN(C)c1cccc(C(=O)NCC2(N3CCCCC3)CCCCC2)c1`, with inactive: -0.1%; and `O=c1[nH]c2ccccc2n1C1CCN(C(c2cc3ccccc3o2)c2nnnn2C2CCCCC2)CC1` (stereo not given), with inactive: 0.87%. Take `O=C(OC1CN2CCC1CC2)C1c2ccccc2Oc2ccccc21` (stereo not given): the activation was inactive: 1.36%.

`N#CC1(Nc2ccccc2)CCN(Cc2ccccc2)CC1`: the activation was inactive: 1.28%. With `O=C(NCC1(N2CCCCC2)CCCCC1)c1ccc(Cl)s1` the figure was inactive: 0.82%; with `COc1ccc(Cl)cc1C(=O)NCC1(N2CCOCC2)CCCCC1`, inactive: -0.51%; with `CCOC(=O)N1CCC(Nc2ccc(OC)cc2)CC1`, inactive: 1.89%.

As to `CCCCn1nnnc1C(c1ccc(OC)cc1)N1CCC(n2c(=O)[nH]c3ccccc32)CC1` (stereo not given), the activation was inactive: 3.63%. `O=c1[nH]c2ccccc2n1C1CCN(C(c2ccccc2OC(F)(F)F)c2nnnn2C2CCCCC2)CC1` (stereo not given): the activation is inactive: 0.17%.

In the case of `O=C(NCC1(N2CCCCC2)CCCCC1)c1ccc(Cl)nc1`, the activation is inactive: 0.13%. With `Cc1cc(C)cc(N(C(=O)c2ccccc2)C2CCN(C(=O)OC(C)(C)C)CC2)c1` the figure was inactive: -0.45%; with `O=C(NCC1(N2CCOCC2)CCCCC1)c1cc2ccccc2o1`, inactive: 0.18%. Consider `CSc1ccccc1C(=O)NCC1(N2CCCCC2)CCCCC1`, for which the activation is inactive: -0.46%. In the case of `Cc1cccc(NC2(C#N)CCN(Cc3ccccc3)CC2)c1`, the activation was inactive: 0.42%. Turning to `COc1ccc(C(=O)NCC2(N3CCCCC3)CCCCC2)cc1`, the activation is inactive: 0.77%. `CCC(c1nnnn1C1CCCC1)N1CCC(n2c(=O)[nH]c3ccccc32)CC1` (stereo not given): the activation was inactive: 3.42%. Then `CC(C)(C)OC(=O)N1CCC(N(C(=O)c2ccccc2)c2ccc(F)cc2)CC1`, with inactive: -0.12%; and `COc1ccc(C(=O)NCC2(N3CCCCC3)CCCCC2)c(OC)c1OC`, with inactive: -0.14%; and `O=C(NCC1(N2CCCCC2)CCCCC1)c1ccc(=O)[nH]c1`, with inactive: 1.83%.

As to `CCCCn1nnnc1C(c1cccs1)N1CCC(n2c(=O)[nH]c3ccccc32)CC1` (stereo not given), the activation was inactive: 5%. For the molecule `O=C(NCC1(N2CCCCC2)CCCCC1)c1cccs1`, the activation was inactive: -0.1%. Then `CCCCn1nnnc1C(CC)N1CCC(n2c(=O)[nH]c3ccccc32)CC1` (stereo not given), with inactive: 4.45%; and `COc1cc(C(=O)NCC2(N(C)C)CCCCC2)ccc1OC(F)F`, with inactive: -0.41%; and `CCOC(=O)N1CCC(Nc2cccc(C)c2)CC1`, with inactive: 0.59%. Then `O=c1[nH]c2ccccc2n1C1CCN(C(c2cccc3ccccc23)c2nnnn2C2CCCC2)CC1` (stereo not given), with inactive: -0.42%. With `O=c1[nH]c2ccccc2n1C1CCN(C(c2ccccc2)c2nnnn2C2CCCCC2)CC1` (stereo not given) the figure was inactive: 3.71%; with `O=C(NCC1(N2CCCCC2)CCCCC1)c1ccc(F)cc1`, inactive: -0.09%.

On to `CCCCOc1ccc(C(=O)NCC2(N3CCOCC3)CCCCC2)cc1`, for which the activation is inactive: 0.21%.

For the molecule `O=P1(N(CCCl)CCCl)SCCCS1`, the activation is inactive: 0.04%. Then `CCCCn1nnnc1C(c1cc2ccccc2o1)N1CCC(n2c(=O)[nH]c3ccccc32)CC1` (stereo not given), with inactive: 5.05%; and `CCOC(=O)N1CCC(Nc2ccc(F)cc2)CC1`, with inactive: 1.3%. In the case of `COc1ccc(NC2CCN(CCc3ccccc3)CC2)c(OC)c1`, the activation is inactive: 0.89%.

For the molecule `CC(C)(C)n1nnnc1C(c1ccccc1)N1CCC(n2c(=O)[nH]c3ccccc32)CC1` (stereo not given), the activation was inactive: 3.24%. In the case of `O=C1CCN(Cc2ccccc2)CC1`, the activation was inactive: 0.37%.
